Measurements published in ChEMBL document CHEMBL1649505, “Activity of telavancin against Staphylococcus aureus strains with various vancomycin susceptibilities in an in vitro pharmacokinetic/pharmacodynamic model with simulated endocardial vegetations” (Antimicrob Agents Chemother, 2009).

Legend:
Staphylococcus aureus [1] = conditions: 1199
Staphylococcus aureus [2] = conditions: NJ992
Staphylococcus aureus [3] = conditions: 494

Measured: MIC

GENTAMICIN
0.5 µg/mL: all assays above
